Consider three compounds from US11504310B2, “Aqueous microemulsion” (Firmenich SA, priority 2017, dated 2022).

Data set [1] can be described thus: physchem.
A short description of data set [2]: logP of fragrance raw materials and fragrances.

Molecules are shown by their SMILES.

By logP is commonly meant the decadic logarithm of the partition coefficient of the neutral form, usually between octanol and water. A low value points to lower lipophilicity.

Regarding `Cc1occc(=O)c1O` [CORPS PRALINE, 3-HYDROXY-2-METHYL-4(4H)-PYRANONE], the logP in data set [1] is 0.09.

In data set [2], `CC(=O)OC1CCCCC1C(C)(C)C` (racemic) [VERDOX™, (+ −)-2-TERT-BUTYL-1-CYCLOHEXYL ACETATE] returned a logP of 4.42.

For `CC(C)CC1CC(C)(O)CCO1` (racemic) [FLOROL ®, (+ −)-TETRAHYDRO-2-ISOBUTYL-4-METHYL-4(2H)-PYRANOL], the logP in data set [1] came out at 2.16.
